Experimental data reported in patent US11111242B2, “Pyrrolo[2,3-d]pyrimidinyl, pyrrolo[2,3-b]pyrazinyl and pyrrolo[2,3-d]pyridinyl acrylamides” (Pfizer Inc., priority 2013, dated 2021).

Tests used:
[1] = system: IL-15 induced STAT5 phosphorylation in Human Whole Blood (total lymphocytes); test: HWB IL-15 Induced STAT5 Phosphorylation Assay; format: cell-based; conditions: Lymphocyte, read-out: HWB-IL15-pSTAT5 IC50 (nM)
Protocol: HWB IL-15 Induced STAT5 Phosphorylation Assay
After mixing and incubating for 45 minutes at 37° C., 5 μl D-PBS (unstimulated control) or 20× stocks of 5 μl human IL-15 (final concentration is 50 ng/ml) were added, and mixed three times. After incubating 15 minutes at 37° C., 1× Lyse/Fix Buffer (BD Phosflow 5× Lyse/Fix Buffer) was added to all wells at 1000 μl/well, then incubated for 20 minutes at 37° C. and spun 5 mins at 1200 rpm. […] Following incubating at 4° C. over night, all the samples were transferred to 96-well polypropylene U-bottom plate, and checked by flow cytometry gated on total lymphocytes.

[2] = system: IL-15 induced P-STAT5 in human PBMC (total lymphocytes); test: PBMC IL-15 Induced P-STAT5; format: cell-based; conditions: read-out: PBMC IL15-pSTAT5 IC50 (nM)
Protocol: PBMC IL-15 Induced P-STAT5
Frozen human PBMC (200-250 million cells/vial) was thawed at 37° C. The cells were transferred to 10 mL warm medium in a 50-mL conical tube, and centrifuged at 1,200 RPM at room temperature for 5 min. The supernatant was aspirated. Cells were suspended in 3 mL warm human plasma and incubated at 37° C. in a tissue culture incubator for 1.5 to 2 h. After adding 47 ml D-PBS (37° C.) to PBMC/FBS suspension, centrifuging at 1,200 RPM at room temperature for 5 min, and aspirating the supernatant, the cells were resuspended in 20 mL warm RPMI medium. Ninety μL of cell suspension were pipetted per well in a 96-well, deep-well, V-bottom plate, and the plate was incubated at 37° C. for 30 min. Five μL of compound were transferred to each well (final 0.2% DMSO), vortex gently and incubate at 37° C. for 15 min; 5 μL 4% DMSO/PBS were added to the control wells. […] Samples were analyzed using a BD Calibur™ or BD FACSCanto™ flow cytometer equipped with the BD High Throughput Sampler.

Row | Structure (SMILES) | IC50 [1] [nM] | IC50 [2] [nM]
1 | C=CC(=O)N1C2CCC(Nc3ncnc4[nH]ccc34)C1CC2 (stereo not shown) [Example 56, 1-(2-((7H-Pyrrolo[2,3-d]pyrimidin-4-yl)amino)-8-azabicyclo[3.2.1]octan-8-yl)prop-2-en-1-one] | 2100 | 158
2 | C=CC(=O)N1[C@H]2CC[C@@H]1[C@H](Nc1ncnc3[nH]ccc13)CC2 [Example 16, 1-((1R,2R,5R)-2-((7H-Pyrrolo[2,3-d]pyrimidin-4-yl)amino)-8-azabicyclo[3.2.1]octan-8-yl)prop-2-en-1-one] | 499 | 61.5
